In this test the target is T1, 2N4R Tau(2–441) (human, UniProt P10636-8).
T1 construct: microtubule-associated protein Tau, 2N4R isoform, residues 2-441; numbers count on: 2N4R Tau; the Supporting Information may tell; also called recombinant 2N4R Tau; source: recombinant
The test can be described thus: ELISA; Tau(291–391) proteoforms immobilised on a PVC plate, recombinant 2N4R Tau(2–441) in solution, detected with Tau-13 mAb (residues 15–25) and anti-mouse IgG HRP; Langmuir binding curves, apparent KD, three replicates. Particulars: both partners purified. In general terms: An ELISA detects its analyte on a solid surface through an enzyme-linked reagent.

B1: Tau(291–391) GlcNAcN359 + AcK353 (peptide, UniProt P10636-8 291-391, looked up)
chain: CGSKDNIKHVPGGGSVQIVYKPVDLSKVTSKCGSLGNIHHKPGGGQVEVKSEKLDFKDRVQSKIGSLDNITHVPGGGNKKIETHKLTFRENAKAKTDHGAE
modifications: N-acetyl glucosamine on N359; N-acetyllysine at 353
notes: microtubule-associated protein Tau, residues 291-391; numbers count on: 2N4R Tau; also called GlcNAcK359 + AcK353; source: synthetic: chemical protein synthesis (SPPS of three segments, DSL and NCL), HPLC purified
Consider B1, for which the binding result is “binds”.

B2: Tau(291–391) GlcNAcN359 + pS305 (peptide, UniProt P10636-8 291-391, looked up)
chain: B1 chain
modifications: N-acetyl glucosamine on N359; phosphoserine at 305
notes: microtubule-associated protein Tau, residues 291-391; numbers count on: 2N4R Tau; source: synthetic: chemical protein synthesis (SPPS of three segments, DSL and NCL), HPLC purified
B2: the binding result is reported as “binds”.

The record behind these values is paper PMC11613296, “Post-Translational Modifications Control Phase Transitions of Tau” (ACS Central Science, 2024).
